This note sets out measurements from PubChem BioAssay AID1645858 (Buhrlage Lab, Dana-Farber Cancer Institute and Novartis …, 2021).

Sequences of proteins named here, by UniProt entry; tags and fusion partners are left off.
UniProt Q5T2D3, whole entry: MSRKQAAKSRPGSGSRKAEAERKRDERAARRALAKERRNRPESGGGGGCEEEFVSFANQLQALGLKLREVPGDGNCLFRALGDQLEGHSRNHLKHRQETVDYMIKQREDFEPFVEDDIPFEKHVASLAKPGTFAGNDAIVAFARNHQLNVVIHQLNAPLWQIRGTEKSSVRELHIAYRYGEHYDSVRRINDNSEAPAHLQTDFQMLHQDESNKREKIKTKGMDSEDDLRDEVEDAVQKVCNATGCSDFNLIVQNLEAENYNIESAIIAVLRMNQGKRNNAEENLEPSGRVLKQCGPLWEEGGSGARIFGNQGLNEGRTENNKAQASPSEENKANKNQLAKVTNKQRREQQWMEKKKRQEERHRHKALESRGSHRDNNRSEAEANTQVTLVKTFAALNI

The entries are a selection whose mix differs from that of the whole data set. Activity calls are given as the source filed them. No stated cut-off is given here; in the data, active means inhibition above about 30%; inactive means the rest.

The target in the assay is OTU domain-containing protein 3 (Homo sapiens) (UniProt Q5T2D3). Nature of the assay: blocks human OTUD3 ubiquitin-rhodamine cleavage (AID 1645858). To be noted: purified OTUD3, Ub-rhodamine fluorescence, 2 h; at 25 µM; stronger effect = higher value.
As to `O=C(NCC1(N2CCCCC2)CCCCC1)c1ccc2ncsc2c1`, the inhibition was inactive: -8.57%.

For the molecule `Cc1ccccc1C(=O)NCC1(N2CCOCC2)CCCCC1`, the inhibition was inactive: -9.67%.

Regarding `Cc1cc(C(=O)NCC2(N3CCOCC3)CCCCC2)c2ccccc2n1`, the inhibition was inactive: 10.1%.

Take `O=C(NCC1(N2CCOCC2)CCCCC1)c1ccccc1Cl`: the inhibition is inactive: -6.77%.

In the case of `O=C(NCC1(N2CCCCC2)CCCCC1)c1ccc(F)cc1`, the inhibition is inactive: -42.8%.

In the case of `CC1CN(CCc2ccccc2)CCC1=O` (stereo not drawn), the inhibition is inactive: 8.21%.

In the case of `CN(C)c1ccc(C(=O)NCC2(N3CCCCC3)CCCCC2)cc1`, the inhibition is inactive: -1.96%.

Turning to `N#Cc1ccc(C(=O)NCC2(N3CCCCC3)CCCCC2)cc1`, the inhibition is inactive: -11.3%.

One may read the inhibition as the relative decrease from the control value, in per cent.
